Set-up: species or system New Zealand rabbits
Settings: rabbit, in vivo, iv, 0.5 mg/kg
Method: In order to confirm that the synthesized BM23 peptide has a relatively long half-life, the half-life of BM23 peptide and BMP-2 in rabbits were detected by LC/MSMS method. LC/MSMS methodology was established, Finnigan TSQ Discovery Max LC/MS was equipped with Surveyor HPLC system. The detection limit was 1-1000 ng/ml, and the recovery rate was over 80%. Six New Zealand rabbits were randomly divided into two groups (three rabbits in each group). The two groups were intravenously injected with 0.5 mg/kg of BM23 peptide and 0.5 mg/kg of BMP-2, respectively; 0.5 ml of blood samples were taken at 5, 10, 15, 30, 60, 120, 180, 300 minutes and placed in an anticoagulant tube, respectively; and centrifuged at 2000 rpm to remove the blood plasma, and then stored at −20° C. for measurement. The blood concentration was measured by LC/MSMS method, 100 μl of blood plasma was taken, 500 μl of a mixed solvent containing IS 2000 ng/ml of acetonitrile and methanol solution at a ratio of 70:30 was added, shaken, and centrifuged at 12000 rpm for 10 minutes. 20 μl of supernatant was injected for LC/MSMS analysis. The main pharmacokinetic parameters were calculated by using 3P97 pharmacokinetic software.

## BMP-2: bone morphogenetic protein BMP-2, purchased from Beijing Yiqiao Shenzhou Biotechnology Co., Ltd.
  half-life: 23 ± 11 min
